We go through 1 substance from patent publication US8034833B2, “Phosphorus binder for treatment of renal disease” (Biolink Life Sciences, Inc., priority 2008, dated 2011).

This series is described as follows: Solubility in water of cationic phosphate binders (Lange's Handbook). The conditions noted are these: relative hydrophile by solubility in water.

On to Calcium Gluconate, for which the “Hydrophile?” value is reported as “Yes (a cationic phosphate binder that has a solubility in water that exceeds about 0.5 g/100 mL of water)”.
